Data as given in ChEMBL document CHEMBL4393684, “Benzoic acid-derived nitrones: A new class of potential acetylcholinesterase inhibitors and neuroprotective agents” (Eur J Med Chem, 2019).

Amino acid sequences for entries named in this document (tags omitted). Residues count along the entry.
UniProt O42275, 24-633 limits assumed: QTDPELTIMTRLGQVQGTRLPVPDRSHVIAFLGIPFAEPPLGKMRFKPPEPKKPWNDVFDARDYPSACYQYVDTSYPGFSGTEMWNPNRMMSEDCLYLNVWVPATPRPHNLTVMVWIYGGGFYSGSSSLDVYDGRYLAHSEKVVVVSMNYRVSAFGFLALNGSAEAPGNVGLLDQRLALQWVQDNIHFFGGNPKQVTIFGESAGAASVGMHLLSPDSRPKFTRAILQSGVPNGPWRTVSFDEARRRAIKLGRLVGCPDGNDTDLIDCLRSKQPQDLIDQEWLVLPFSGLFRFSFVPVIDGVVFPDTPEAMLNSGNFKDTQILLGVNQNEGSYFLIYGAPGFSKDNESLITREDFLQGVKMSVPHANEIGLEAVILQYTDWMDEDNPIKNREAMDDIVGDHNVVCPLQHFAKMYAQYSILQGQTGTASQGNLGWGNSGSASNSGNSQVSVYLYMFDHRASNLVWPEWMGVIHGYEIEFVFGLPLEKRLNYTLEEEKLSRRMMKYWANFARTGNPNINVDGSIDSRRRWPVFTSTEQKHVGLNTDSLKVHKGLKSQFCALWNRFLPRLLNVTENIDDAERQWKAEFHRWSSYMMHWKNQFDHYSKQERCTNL

Molecular target: Acetylcholinesterase (Electrophorus electricus, UniProt O42275)
Assay: Inhibition of electric eel AChE using acetylthiocholine iodide as substrate incubated for 5 mins followed by substrate addition measured every minute for 5 mins by Ellman's method

Row | SMILES | IC50 [µM]
1 | COc1ccc(C(=O)NCCCCCCCCC/C=[N+](\[O-])C(C)(C)C)cc1OC | 12.6
2 | COc1cccc(C(=O)NCCCCC/C=[N+](\[O-])C(C)(C)C)c1 | 27.2
3 | COc1ccc(C(=O)NCCCCC/C=[N+](\[O-])C(C)(C)C)cc1OC | 8.3
4 | COc1cc(C(=O)NCCCCCCCCC/C=[N+](\[O-])C(C)(C)C)cc(OC)c1OC | 11.8
5 | COc1ccc(C(=O)NCCCCC/C=[N+](\[O-])C(C)(C)C)cc1 | 26.1
6 | COc1ccc(C(=O)NCCCCCCC/C=[N+](\[O-])C(C)(C)C)cc1OC | 12.2
7 | COc1cc(C(=O)NCCCCCCC/C=[N+](\[O-])C(C)(C)C)cc(OC)c1OC | 16.9
